# PubChem BioAssay AID1556 (The Scripps Research Institute Molecular Screening Center, 2009)
# The list shows a part of the results, in another mix than the full data. Active and inactive are the calls of the source.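 How the source made its calls: active means inhibition above the mean plus 3 SD of all compounds in the same screening run (cut at about 4.5% in these data); inactive means the rest.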
# Tested on: metallo-beta-lactamase IMP-1 (Pseudomonas aeruginosa)
# Test: IMP-1 metallo-beta-lactamase inhibitors, primary screen, biochemical, epi-absorbance readout, Pseudomonas aeruginosa enzyme (AID 1556);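 further: 0% = IMP-1 with DMSO and 100% = DMSO wells lacking enzyme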
# Conditions: purified IMP-1, nitrocefin hydrolysis, epi-absorbance fluorescence; at 5.6 µM; active compounds read high
row,Structure (SMILES),inhibition
1,CN(C(=O)Cc1ccc(Cl)c(Cl)c1)[C@@H]1CCCC[C@H]1N1CCCC1,inactive: -1.02%
2,CC(C)/C=N\N=C(\N)N[N+](=O)[O-],inactive: -1.89%
3,O=[As](O)(c1ccccc1Br)c1ccccc1Br,inactive: -0.89%
4,CC1(CBr)Cn2c(nc3ccccc3c2=O)S1 (stereo unspecified),inactive: -1.63%
5,Clc1n[nH]nc1-c1nn[nH][15n]1,inactive: -2.04%
6,CC(C)(C)C(=O)NC(Sc1ncccn1)C(Cl)(Cl)Cl (stereo unspecified),inactive: -3.19%
7,CCC1=CC2Cc3nc4ccc(Cl)cc4c(N)c3C(C1)C2 (stereo unspecified),inactive: -1.53%
8,O=P1(Nc2ccccn2)COc2ccccc2OC1,inactive: -4.39%
9,CCOP(=O)(NC(=NC(C)c1ccccc1)NC(C)c1ccccc1)OCC (stereo unspecified),inactive: -3.49%
10,CCOP(=O)(Nc1ccc(C)cn1)OCC,inactive: -2.95%
11,Nc1cccc([As](=O)(O)c2ccccc2)c1,inactive: -1.24%
12,O=P1(Nc2ccc(Br)cn2)COc2ccccc2OC1,inactive: -1.81%
13,O=[As](O)(c1cccs1)c1cccs1,inactive: -1.01%
14,Cc1ccc(OCC(=O)OC2CN3CCC2CC3)cc1 (stereo unspecified),inactive: -2.57%
15,O=P1(Nc2ncccn2)COc2ccccc2OC1,inactive: -2.84%
16,CN(C)C1(CNC(=O)c2ccc(S(C)(=O)=O)cc2)CCCCC1,inactive: -0.01%
17,O=C(/C=C/c1ccccc1)OC1CN2CCC1CC2 (stereo unspecified),inactive: -2.02%
18,Cc1nn(-c2ccccc2)c2c1P(=O)(N1CCOCC1)N(C)C(c1ccccc1)=N2 (stereo unspecified),inactive: -4.21%
19,Cc1ccc(C(=O)OC2CN3CCC2CC3)cc1 (stereo unspecified),inactive: -0.79%
20,CC1CCC(C(C)C)C(OP(=O)(Nc2ccccn2)c2ccccc2)C1 (stereo unspecified),inactive: -5.54%
21,CCOP1(=S)c2c(C)nn(CCC#N)c2N=C(c2ccc(F)cc2)N1C (stereo unspecified),inactive: -0.28%
22,O=[N+]([O-])c1ccc2c(c1)nnn2O,inactive: -3.33%

row,Structure (SMILES),inhibition
1,O=C(O)COc1ccc([As](=O)(O)O)cc1[N+](=O)[O-],inactive: -1.72%
2,Nc1ccccc1[As](=O)(O)c1ccccc1,inactive: -0.65%
3,CCOP1(=S)c2c(C)nn(CCC#N)c2N=C(c2ccccc2F)N1C (stereo unspecified),inactive: -2.16%
4,O=P(Nc1nccs1)(c1ccccc1)c1nc2ccccc2s1 (stereo unspecified),inactive: -3.05%
5,O=P(Nc1nccs1)(Oc1ccccc1)Oc1ccccc1,inactive: -2.48%
6,CS(=O)(=O)c1cc([N+](=O)[O-])c2no[n+]([O-])c2c1,inactive: -0.18%
7,COc1cc(C2NCCC3(OCCO3)C2(C)C)cc(OC)c1OC (stereo unspecified),inactive: -2.99%
8,CCOP(=O)(Nc1cccc2ccccc12)OCC,inactive: -1.87%
9,Nc1cccc2c([As](=O)(O)O)cccc12,inactive: 2.73%
10,Cc1ccc(NCCc2c([N+](=O)[O-])cc([N+](=O)[O-])cc2[N+](=O)[O-])cc1,inactive: -4.17%
11,CCCOP(=S)(Nc1nc(N)cc(=O)[nH]1)OCCC,inactive: -2.95%
12,O=[As](O)(c1cccc(O)c1)c1cccc(O)c1,inactive: -1.78%
13,Cc1cccc(OCC(=O)OC2CN3CCC2CC3)c1 (stereo unspecified),inactive: -4.22%
14,O=C(OC1CN2CCC1CC2)c1ccc(Cl)cc1 (stereo unspecified),inactive: 0.75%
15,COc1cc(C(=O)NCC2(N3CCOCC3)CCCCC2)cc(Cl)c1OC(C)C,inactive: -2.92%
16,O=[As](O)(O)c1cccnc1,inactive: -0.97%
17,CS(=O)(=O)c1ccc(Cl)c(NC(=O)COC(=O)C(O)(c2ccccc2)c2ccccc2)c1,inactive: -2.51%
18,COc1ccc(N/C(=N/P(=O)(N2CCOCC2)N2CCOCC2)N2CCOCC2)cc1,inactive: -2.09%
19,COc1ccc2nc(NP(=O)(c3ccccc3)c3ccccc3)sc2c1,inactive: -2.72%
20,COc1cc(I)ccc1[As](=O)(O)O,inactive: -1.54%
21,Cc1c2c(nc3ccccc13)SC(C(Cl)Cl)C2 (stereo unspecified),inactive: -2.09%
22,O=C(OC1CN2CCC1CC2)C12CC3CC(CC(C3)C1)C2 (stereo unspecified),inactive: -3.99%

row,Structure (SMILES),inhibition
1,Cc1cc(=O)[nH]c(N[N+](=O)[O-])n1,inactive: -1.85%
2,CCN(CC)C(=S)SC(NC=O)C(Cl)(Cl)Cl (stereo unspecified),inactive: -2.75%
3,CC(C)NC(=O)NP(=O)(Oc1ccccc1)Oc1ccccc1,inactive: -3.49%
4,O=[N+]([O-])c1cc([N+](=O)[O-])c(-c2ccn[nH]2)s1,inactive: -1.9%
5,ClCCSc1nnc(-c2cccnc2)o1,inactive: -6.9%
6,CC(C)c1ccc(OP(=O)(Nc2ccccn2)Oc2ccccc2F)cc1 (stereo unspecified),inactive: -3%
7,Cc1ccc(OP(=O)(Nc2ccc([N+](=O)[O-])cn2)Oc2ccc(C)cc2)cc1,inactive: -0.55%
8,Cc1ccc2nc3c(c(C)c2c1)CC(C(Cl)Cl)S3 (stereo unspecified),inactive: 0.15%
9,O=[As](O)(c1ccc(O)cc1)c1ccccc1O,inactive: -1.21%
10,C[As](=O)(O)c1cccc(C(=O)O)c1,inactive: -1.8%
11,Cc1cc(SC(NC=O)C(Cl)(Cl)Cl)ncn1 (stereo unspecified),inactive: -2.58%
12,O=P(Nc1ccccn1)(c1cccc2ccccc12)c1cccc2ccccc12,inactive: -1.35%
13,O=[N+]([O-])c1ccc(Nc2ccc(Oc3ccc([N+](=O)[O-])cc3[N+](=O)[O-])cc2)c([N+](=O)[O-])c1,inactive: -2.25%
14,CCOC(=O)Nc1cccc([As](=O)(O)O)c1,inactive: -1.56%
15,CCCCOc1ccc(C(=O)NCC2(N3CCCCC3)CCCCC2)cc1OC,inactive: 1.21%
16,Cc1cc(SC(NC(=O)c2ccccc2)C(Cl)(Cl)Cl)nc(C(C)C)n1 (stereo unspecified),inactive: -4.11%
17,CCOC(=O)Nc1ccc([As](=O)(O)O)c(O)c1,inactive: -2.38%
18,CCC(C)N(CC(C)C)C(=S)SC(NC(C)=O)C(Cl)(Cl)Cl (stereo unspecified),inactive: -7.34%
19,O=C(OC1CN2CCC1CC2)c1cccc([N+](=O)[O-])c1 (stereo unspecified),inactive: -0.27%
20,CCOC(=O)c1ccc(NC(=O)C(C)(CCl)SC)cc1 (stereo unspecified),inactive: -3.78%
21,O=C(COc1ccccc1)OC1CN2CCC1CC2 (stereo unspecified),inactive: -2.66%
22,O=C(Nc1ccncc1[N+](=O)[O-])c1ccc([N+](=O)[O-])cc1[N+](=O)[O-],inactive: -4.35%
